Columns and labels:
[1] = biological target: T1, Serotonin 3 (5-HT3) receptor (Rattus norvegicus) (UniProt P35563+Q9JJ16); details: filed as antagonist
[2] = biological target: T1, Serotonin 3 (5-HT3) receptor (Rattus norvegicus); assay: Dose required to stimulate cardiac 5-HT3 receptors evaluated by using von Bezold-Jarisch reflex test in urethane-anesthetized rats after intravenous administration; assay type: functional, organism-based
[3] = biological target: T1, Serotonin 3 (5-HT3) receptor (Rattus norvegicus); assay: The stimulation of cardiac 5-HT3 receptors evaluated by using von Bezold-Jarisch reflex test in urethane-anesthetized rats; pure antagonist; assay type: functional; details: filed as antagonist
[4] = biological target: T1, Serotonin 3 (5-HT3) receptor (Rattus norvegicus); assay: Dose required to stimulate cardiac 5-HT3 receptors evaluated by using von Bezold-Jarisch reflex test in urethane-anesthetized rats; assay type: functional

The chains behind the UniProt entries cited, without tags or fusion partners. Where a name states a change or a piece, a line headed by the entry shows the natural chain unless it says otherwise.
UniProt P35563: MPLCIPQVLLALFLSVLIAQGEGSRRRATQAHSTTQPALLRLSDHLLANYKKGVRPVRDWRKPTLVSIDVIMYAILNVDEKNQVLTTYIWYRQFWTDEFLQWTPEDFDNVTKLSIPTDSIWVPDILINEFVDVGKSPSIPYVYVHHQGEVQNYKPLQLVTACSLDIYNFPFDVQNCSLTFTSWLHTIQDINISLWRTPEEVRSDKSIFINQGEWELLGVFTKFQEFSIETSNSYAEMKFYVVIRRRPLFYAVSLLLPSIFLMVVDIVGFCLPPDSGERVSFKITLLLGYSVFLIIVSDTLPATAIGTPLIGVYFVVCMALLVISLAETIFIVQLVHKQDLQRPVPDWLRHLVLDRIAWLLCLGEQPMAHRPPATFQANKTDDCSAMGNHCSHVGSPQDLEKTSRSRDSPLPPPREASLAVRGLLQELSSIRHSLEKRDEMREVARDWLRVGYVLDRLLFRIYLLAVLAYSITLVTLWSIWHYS
UniProt Q9JJ16: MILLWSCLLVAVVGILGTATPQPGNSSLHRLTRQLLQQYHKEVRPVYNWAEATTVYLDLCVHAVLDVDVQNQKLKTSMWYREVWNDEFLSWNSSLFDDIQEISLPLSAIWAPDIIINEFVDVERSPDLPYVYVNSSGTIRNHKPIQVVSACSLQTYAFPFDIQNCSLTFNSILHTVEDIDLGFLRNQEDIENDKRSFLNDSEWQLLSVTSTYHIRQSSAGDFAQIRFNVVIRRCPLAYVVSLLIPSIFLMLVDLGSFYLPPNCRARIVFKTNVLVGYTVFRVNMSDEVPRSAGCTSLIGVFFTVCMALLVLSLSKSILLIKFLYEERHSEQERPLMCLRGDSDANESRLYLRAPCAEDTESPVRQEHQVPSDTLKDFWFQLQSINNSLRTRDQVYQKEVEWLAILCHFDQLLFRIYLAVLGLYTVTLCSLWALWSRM

Row | Behavior [1] | ID50 [2] | Behavior [3] | ID50 [4] | SMILES
1 | Antagonist | 0.3 mg/kg | – | – | CN1CCN(c2nc3cc(C(F)(F)F)ccc3n3cccc23)CC1
2 | – | – | Antagonist | 0.3 mg/kg | CN1CCN(c2nc3ccccc3n3cccc23)CC1
